Source: patent EP2692332A2, “Composition for the treatment of callus, corns, moles, telangiectasias, and psoriasis” (Unigroup ApS, priority 2012, dated 2014)

Format: physicochemical
Settings: solvent ethyl lactate

For O=C(O)c1ccccc1O [salicylic acid], the “concentration at which precipitated in ethyl lactate” value was 40 % w/w.
